Values of other authors, collected in PMC3187562 (ACS medicinal chemistry letters, 2011).

Test system: HDAC7

For `O=C(CCCCCCC(=O)Nc1ccccc1)NO` [compound 2, vorinostat], the “expression of HDAC7 in treated cells” value is given as “selectively down-regulated”.
